Assays:
[1] = system: all the cancer cells lines studied
[2] = system: 22Rv1 human prostate cancer cells; assay: Differential nuclear staining; assay type: cell-based
[3] = system: human cervical HeLa cancer cells; assay: Differential nuclear staining; assay type: cell-based
[4] = system: YT NK-like lymphoblastic lymphoma cells; assay: Differential nuclear staining; assay type: cell-based
[5] = system: LNCaP human prostate cancer cells; assay: Differential nuclear staining; assay type: cell-based
[6] = system: DU145 human prostate carcinoma cells; assay: Differential nuclear staining; assay type: cell-based

SMILES: CC(=O)N1CCN(c2ccc(OCC3COC(Cn4ccnc4)(c4ccc(Cl)cc4Cl)O3)cc2)CC1 (stereo not drawn) [KTZ, ketoconazole]
- cytotoxicity against cancer cell lines (in words) [1]: moderate cytotoxicity
- Selectivity Index (S.I.) [2]: 24.2 1/>13
- Selectivity Index (S.I.) [3]: 66.7 1/>4
- Selectivity Index (S.I.) [4]: 4.9 1/>64
- Selectivity Index (S.I.) [5]: 27.9 1/>11
- Selectivity Index (S.I.) [6]: 28.6 1/>11

— PMC4207122 (Cell biology and toxicology, 2013)
